Drawing on PubChem BioAssay AID720551 (National Center for Advancing Translational Sciences (NCATS), 2013), this text covers activity change for one molecule.

Protein sequences, listed by entry. Tags and fused reporters are not part of them.
UniProt Q12809, whole entry: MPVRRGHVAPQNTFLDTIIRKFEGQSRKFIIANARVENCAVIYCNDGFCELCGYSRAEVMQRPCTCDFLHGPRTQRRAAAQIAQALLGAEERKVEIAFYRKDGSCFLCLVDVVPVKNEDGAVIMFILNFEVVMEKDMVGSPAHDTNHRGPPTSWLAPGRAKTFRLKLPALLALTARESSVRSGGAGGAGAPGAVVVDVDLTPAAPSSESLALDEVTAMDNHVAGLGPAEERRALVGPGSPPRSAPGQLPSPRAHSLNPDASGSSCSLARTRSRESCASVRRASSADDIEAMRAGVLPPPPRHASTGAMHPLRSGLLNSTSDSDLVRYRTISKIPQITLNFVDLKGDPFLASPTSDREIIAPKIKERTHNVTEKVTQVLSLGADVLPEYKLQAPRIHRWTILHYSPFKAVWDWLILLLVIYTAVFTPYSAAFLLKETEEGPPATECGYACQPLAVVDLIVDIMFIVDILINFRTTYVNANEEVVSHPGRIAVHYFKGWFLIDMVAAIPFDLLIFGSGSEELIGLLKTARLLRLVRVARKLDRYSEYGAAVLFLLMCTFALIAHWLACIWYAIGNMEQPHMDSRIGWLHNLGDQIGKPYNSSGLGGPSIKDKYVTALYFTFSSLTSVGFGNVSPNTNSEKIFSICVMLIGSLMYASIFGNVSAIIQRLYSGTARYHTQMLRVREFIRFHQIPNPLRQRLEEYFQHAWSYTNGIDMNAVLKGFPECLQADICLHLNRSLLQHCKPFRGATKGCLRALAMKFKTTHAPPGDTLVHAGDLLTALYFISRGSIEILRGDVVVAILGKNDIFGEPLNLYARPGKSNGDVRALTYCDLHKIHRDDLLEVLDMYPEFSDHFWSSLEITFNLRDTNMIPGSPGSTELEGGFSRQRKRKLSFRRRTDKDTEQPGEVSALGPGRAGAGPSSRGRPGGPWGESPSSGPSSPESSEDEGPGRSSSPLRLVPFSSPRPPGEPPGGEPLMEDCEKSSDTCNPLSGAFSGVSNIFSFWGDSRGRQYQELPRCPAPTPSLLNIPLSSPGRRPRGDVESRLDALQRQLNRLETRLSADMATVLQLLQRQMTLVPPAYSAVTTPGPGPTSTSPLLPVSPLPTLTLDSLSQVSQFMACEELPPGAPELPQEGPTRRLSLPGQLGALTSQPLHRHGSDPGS

The entries are a selection whose mix differs from that of the whole data set. The source made the active and inactive calls.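 The calls were made as follows: active = maximum activity change below -70%; inconclusive = maximum activity change between -70% and -50%; inactive = maximum activity change above -50%.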
% is scaled to controls: 0 for no effect and ±100 for the full control effect.

In this test the target is Voltage-gated inwardly rectifying potassium channel KCNH2 (Homo sapiens) (UniProt Q12809). Description: qHTS for Inhibitors of KCHN2 3.1: Wildtype qHTS. Conditions: U2OS, BacMam KCNH2, thallium flux FluxOr; at 1.84 µM; hits give low values. From the text:
Many antipsychotic drugs that inhibit the neurotransmitter dopamine also bind to hERG1 channel which might help explain their antipsychotic activity but also produces cardiac side effects. The discovery of the novel KCNH2 3.1 isoform offers a potential new target for the development of antipsychotic drugs without cardiac side effects. This proposal will use a high throughput thallium flux assay developed for KCNH2 to screen compounds that modulate the activity of KCNH2 3.1. The wild type KCNH2 channel will also be screened in parallel to help define the selective modulators of this KCNH2 3.1 potassium channel. The resulting compounds will be validated in electrophysiology experiments. The availability of animal models will allow future testing in vivo for effects on memory and other aspects of animal physiology linked with psychosis. NIH Chemical Genomics Center [NCGC] NIH Molecular Libraries Probe Centers Network [MLPCN] MLPCN Grant: MH096539 Assay Submitter (PI): James Barrow, Johns Hopkins University, Lieber Institute for Brain Development
U2OS cells were resuspended in cell media containing 10% fetal calf serum (FCS) at a concentration of 2 million cells / mL. […] A stimulation buffer was added to the plate and the second kinetic read (2 min) was obtained. The rate constant was calculated from the kinetic reads and normalized to the positive and negative DMSO controls.
In the case of `CCC(=O)N(c1ccccc1)C1(COC)CCN(CCn2nnn(CC)c2=O)CC1`, the activity change is inactive: -3.95%.
